Data reported in BindingDB's records for US10358436 (University Health Network, 2019).

The chains behind the UniProt entries cited, without tags or fusion partners. Residues count along the entry.
UniProt O00444, 1-391: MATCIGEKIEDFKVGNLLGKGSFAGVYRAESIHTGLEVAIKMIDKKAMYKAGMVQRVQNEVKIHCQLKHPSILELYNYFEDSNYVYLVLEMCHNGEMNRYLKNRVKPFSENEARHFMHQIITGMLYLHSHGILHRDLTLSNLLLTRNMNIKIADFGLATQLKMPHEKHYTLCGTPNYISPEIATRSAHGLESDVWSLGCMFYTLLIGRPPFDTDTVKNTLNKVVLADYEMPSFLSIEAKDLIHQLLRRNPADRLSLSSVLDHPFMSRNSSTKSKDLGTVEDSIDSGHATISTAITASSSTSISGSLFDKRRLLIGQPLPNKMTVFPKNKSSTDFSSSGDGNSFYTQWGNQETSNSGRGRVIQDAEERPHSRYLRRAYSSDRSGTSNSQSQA

Target: Serine/threonine-protein kinase PLK4 [1-391] (Homo sapiens, UniProt O00444)
Test: Inhibition Assay

O=C1Nc2ccccc2[C@]12CC2c1ccc2c(I)n[nH]c2c1 (stereo partly specified)
IC50: 550 nM
